The source of these data is US20050238679A1, “Taurine-containing preparations for improving the skin barrier” (Beiersdorf AG, priority 2004, published 2005).

The data set is described as follows: interfacial tension towards water as measure of polarity of lipids. Format: physicochemical. The settings on record: lipid/oil component against water; regarded as polar if less than 30 mN/m. From the text:
Oils and fats differ from one another in their polarity, which is difficult to define. It has already been proposed to adopt the interfacial tension towards water as a measure of the polarity index of an oil or of an oily phase. Then, the lower the interfacial tension between this oily phase and water, the greater the polarity of the oily phase in question. According to the invention, the interfacial tension is regarded as one possible measure of the polarity of a given oil component.
The interfacial tension is the force which acts on an imaginary line one meter in length in the interface between two phases. The physical unit for this interfacial tension is conventionally calculated from the force/length relationship and is usually expressed in mN/m (millinewtons divided by meters). It has a positive sign if it endeavours to reduce the interface. In the converse case, it has a negative sign. For the purposes of the present invention, lipids are regarded as polar if their interfacial tension towards water is less than 30 mN/m.
Nonpolar oils are, for example, those which are chosen from the group of branched and unbranched hydrocarbons and hydrocarbon waxes, in particular Vaseline (petrolatum), paraffin oil, squalane and squalene, polyolefins and hydrogenated polyisobutenes. Among the polyolefins, polydecenes are the preferred substances. […]

On to `CCCCCCCCCCC(CO)CCCCCCCC` (stereo not shown) [EUTANOI ® G, Octyldodecanol], for which the “interfacial tension towards water” value is reported as 24.8 mN/m.
